Assay results from patent publication US11547130B2, “Nanocomposite bacteriostatic material and a preparation method and an application thereof” (Tianjin University of Science and Technology, priority 2019, dated 2023).

Tested on: Bacillus subtilis
Test: Thermostability: antibacterial circle experiment after heat treatment under neutral condition
Type: cell-based
Conditions: pH 7; heat treatment at 60° C. for 30 min; read out by antibacterial circle
Method: The pH value of each material in the above groups was regulated to 7 with HCl and subjected to the heat treatment at 60° C. for 30 min; and with the use of an antibacterial circle experimental method, the antibacterial effect was determined according to a diameter of an antibacterial circle.
Bacillus subtilis was cultured for overnight in a shake flask, and a bacteria solution having a concentration of 10^8 CFU/mL was selected as a seed solution for later use. The seed solution was inoculated as per 2% of inoculum size to an LB semi-solid culture medium sterilized at about 50° C. under a sterile condition, and mixed quickly and uniformly to pour into a culture dish, 20 mL being poured into each culture dish. Upon solidification, three holes were punched on the culture dish by a puncher, and different antibacterial samples were respectively added to each hole, an added amount of each group being 150 μL. Upon the completion, each culture dish was placed into a constant temperature incubator at 37° C., and cultured for 16 h to observe and measure a size of the antibacterial circle.

Question: How did the thermostability turn out when nisin was run?
Answer: easily inactivated
